Values of other authors, collected in patent US5756301A, “Endogenous taxol-like substance in human serum, monoclonal antibodies directed thereto and methods of assaying therefor” (The Trustees of Columbia University in the City of New York, priority 1993, dated 1998).

Tested on: microtubules / tubulin
Conditions: cited from earlier work

COc1cc2c(c(OC)c1OC)-c1ccc(OC)c(=O)cc1[C@@H](NC(C)=O)CC2 [colchicine]
Effect on microtubule assembly / tubulin polymerization: inhibit tubulin polymerization
